Measurements from ChEMBL document CHEMBL1127847, “Cyclic GMP phosphodiesterase inhibitors. 2. Requirement of 6-substitution of quinazoline derivatives for potent and selective inhibitory activity” (J Med Chem, 1994).

Biological target: T1, Phosphodiesterase 3A (Sus scrofa, UniProt Q9XSW7)
T1 sequence (Q9XSW7 whole entry): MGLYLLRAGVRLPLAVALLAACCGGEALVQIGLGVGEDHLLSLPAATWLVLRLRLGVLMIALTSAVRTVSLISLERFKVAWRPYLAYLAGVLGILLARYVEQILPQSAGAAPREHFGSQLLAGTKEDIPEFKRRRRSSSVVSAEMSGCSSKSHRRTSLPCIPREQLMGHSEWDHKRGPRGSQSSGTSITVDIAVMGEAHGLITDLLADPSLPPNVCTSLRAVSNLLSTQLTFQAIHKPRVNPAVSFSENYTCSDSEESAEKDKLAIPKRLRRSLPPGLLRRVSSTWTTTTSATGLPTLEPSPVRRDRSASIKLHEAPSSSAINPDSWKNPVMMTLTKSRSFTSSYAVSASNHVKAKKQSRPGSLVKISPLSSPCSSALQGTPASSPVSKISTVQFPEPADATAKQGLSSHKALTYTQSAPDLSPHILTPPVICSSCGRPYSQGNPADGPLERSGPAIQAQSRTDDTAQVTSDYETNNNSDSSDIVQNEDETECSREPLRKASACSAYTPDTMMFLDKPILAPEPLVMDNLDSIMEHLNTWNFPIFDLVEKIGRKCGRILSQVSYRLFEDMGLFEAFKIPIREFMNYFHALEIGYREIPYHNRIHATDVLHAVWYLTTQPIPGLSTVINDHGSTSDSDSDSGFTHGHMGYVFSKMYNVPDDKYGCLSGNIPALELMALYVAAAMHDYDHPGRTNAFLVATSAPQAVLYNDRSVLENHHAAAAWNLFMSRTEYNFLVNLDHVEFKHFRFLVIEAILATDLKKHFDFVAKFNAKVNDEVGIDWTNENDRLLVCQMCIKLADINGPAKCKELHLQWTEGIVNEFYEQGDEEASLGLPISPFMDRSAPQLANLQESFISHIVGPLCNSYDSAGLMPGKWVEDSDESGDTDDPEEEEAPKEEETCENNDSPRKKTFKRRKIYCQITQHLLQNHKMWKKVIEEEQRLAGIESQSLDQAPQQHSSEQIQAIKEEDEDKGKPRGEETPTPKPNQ
Experiment: Inhibition of cGMP-inhibited PDE 3 from porcine aorta

IC50: 360 nM
Structure (SMILES): COc1cc2c(NCc3ccc4c(c3)OCO4)ncnc2c(OC)c1OC
